Measured values as given in article PMC3486420, “In Vitro and In Vivo Characterizations of Chiglitazar, a Newly Identified PPAR Pan-Agonist” (PPAR Research, 2012).

Tests used:
PPARα [1] = target: T1, PPARα (Homo sapiens, UniProt Q07869); assay: PPARα transactivation reporter gene assay in U2OS cells; type: cell-based; conditions: max response compared with WY at 50 μM
T1 sequence (Q07869 1-468): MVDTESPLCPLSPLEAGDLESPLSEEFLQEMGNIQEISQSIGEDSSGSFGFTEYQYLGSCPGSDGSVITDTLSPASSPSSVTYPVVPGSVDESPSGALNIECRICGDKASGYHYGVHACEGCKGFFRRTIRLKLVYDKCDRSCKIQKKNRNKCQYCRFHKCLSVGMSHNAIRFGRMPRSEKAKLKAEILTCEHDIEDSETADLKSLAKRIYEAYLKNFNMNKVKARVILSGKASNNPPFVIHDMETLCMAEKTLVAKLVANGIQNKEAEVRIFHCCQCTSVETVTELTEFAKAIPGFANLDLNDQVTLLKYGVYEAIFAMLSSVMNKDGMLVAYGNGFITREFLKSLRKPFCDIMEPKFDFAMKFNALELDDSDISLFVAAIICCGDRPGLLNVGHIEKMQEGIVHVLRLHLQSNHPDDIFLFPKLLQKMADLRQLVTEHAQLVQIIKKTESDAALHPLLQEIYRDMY
T1 sequence (P19793 1-462 partner): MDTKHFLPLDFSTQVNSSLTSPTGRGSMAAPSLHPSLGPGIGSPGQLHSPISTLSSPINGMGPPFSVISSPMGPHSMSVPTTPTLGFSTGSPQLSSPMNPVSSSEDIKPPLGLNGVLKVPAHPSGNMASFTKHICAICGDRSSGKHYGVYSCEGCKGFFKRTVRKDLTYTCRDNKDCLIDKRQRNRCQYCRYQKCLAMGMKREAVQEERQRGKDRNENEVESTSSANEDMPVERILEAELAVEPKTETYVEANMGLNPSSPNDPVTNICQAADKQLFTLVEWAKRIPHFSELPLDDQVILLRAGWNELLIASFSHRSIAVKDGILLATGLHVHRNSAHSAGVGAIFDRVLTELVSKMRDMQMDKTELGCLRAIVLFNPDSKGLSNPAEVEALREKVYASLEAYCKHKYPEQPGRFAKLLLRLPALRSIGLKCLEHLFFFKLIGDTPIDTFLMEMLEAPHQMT

PPARα [2] = target: T1, PPARα; assay: PPARα transactivation reporter gene assay in SMMC-7721 cells; type: cell-based; conditions: max response compared with WY at 50 μM

CN(CCOc1ccc(CC2SC(=O)NC2=O)cc1)c1ccccn1 (centres unmarked) [Ros, rosiglitazone]
PPARα % Max (PPARα [1]): 16%
PPARα % Max (PPARα [2]): 11%
